Biological target: GST-SV40 TAg cNLS (SV40)
Assay: ELISA; solid phase plate binding assay, no cross-linking: MaxiSorp plates coated with 25 nM GST-cNLS or GST in PBS, 0.2 mM PMSF, 2 mM DTT; serial dilutions of S-tagged mImpα1ΔIBB, 1 hr at 4°C; detected with S-protein-HRP; apparent Kd, one-site specific binding, duplicates

Mouse importin-α1 lacking the IBB domain (mImpα1ΔIBB; residues 70–529) (from UniProt P52293 70-529) (domain or fragment)
Kd: 0.0125 µM
